Earlier results on 22 molecules are cited in PubChem BioAssay AID977610.

Holding throughout (experiment): PubChem AID 977610
The target of one data set is Estrogen receptor alpha. The following applies: PDB protein-ligand complexes, literature Ki; protein: Estrogen receptor alpha; PDB entry 2POG.
Another data set addresses glutamate receptor 2. The following applies: PDB protein-ligand complexes, literature Ki; protein: glutamate receptor 2; PDB entry 1XHY.
For data set [1], the target named is fructose-1,6-bisphosphatase 1. The following applies: PDB protein-ligand complexes, literature Ki; protein: fructose-1,6-bisphosphatase 1; PDB entry 2FHY.
For data set [2], the target named is oligo-peptide binding protein. Particulars: PDB protein-ligand complexes, literature Ki; protein: oligo-peptide binding protein; PDB entry 2RKM.
The next data set concerns the target dipeptidyl peptidase 4. Particulars: PDB protein-ligand complexes, literature Ki; protein: dipeptidyl peptidase 4; PDB entry 2AJ8.
The target of data set [3] is methionine aminopeptidase. Particulars: PDB protein-ligand complexes, literature Ki; protein: methionine aminopeptidase; PDB entry 1YVM.
The target of data set [4] is Glutamate carboxypeptidase III. Particulars: PDB protein-ligand complexes, literature Ki; protein: Glutamate carboxypeptidase III; PDB entry 3FEE.
Data set [5] deals with GLUTAMATE CARBOXYPEPTIDASE 2. Particulars: PDB protein-ligand complexes, literature Ki; protein: GLUTAMATE CARBOXYPEPTIDASE 2; PDB entry 2JBK.
In another data set the target is uracil-dna glycosylase. The following applies: PDB protein-ligand complexes, literature Ki; protein: uracil-dna glycosylase; PDB entry 1UI0.
In a further data set the target is beta-lactamase tem. Particulars: PDB protein-ligand complexes, literature Ki; protein: beta-lactamase tem; PDB entry 1NXY.
The target in another data set is beta-lactamase ctx-m-9a. The following applies: PDB protein-ligand complexes, literature Ki; protein: beta-lactamase ctx-m-9a; PDB entry 1YM1.
Another data set concerns the target beta-lactamase. The following applies: PDB protein-ligand complexes, literature Ki; protein: beta-lactamase; PDB entry 1PI5.
Data set [6] concerns the target isopentenyl diphosphate delta-isomerase. The following applies: PDB protein-ligand complexes, literature Ki; protein: isopentenyl diphosphate delta-isomerase; PDB entry 1Q54.
Another data set concerns the target ribonuclease a. The following applies: PDB protein-ligand complexes, literature Ki; protein: ribonuclease a; PDB entry 6RSA.
Another data set deals with chorismate mutase. Particulars: PDB protein-ligand complexes, literature Ki; protein: chorismate mutase; PDB entry 2CSM.
Data set [7] addresses mannose-binding protein-c. The following applies: PDB protein-ligand complexes, literature Ki; protein: mannose-binding protein-c; PDB entry 1RDN.
The target of data set [8] is phosphonopyruvate hydrolase. The following applies: PDB protein-ligand complexes, literature Ki; protein: phosphonopyruvate hydrolase; PDB entry 2DUA.
In the next data set the target is 1T5A A. The following applies: PDB protein-ligand complexes, literature Ki; PDB entry 1T5A.
Data set [9] has as its target phosphoenolpyruvate-protein phosphotransferase. Particulars: PDB protein-ligand complexes, literature Ki; protein: phosphoenolpyruvate-protein phosphotransferase; PDB entry 2HWG.
Data set [10] concerns the target chloramphenicol acetyltransferase iii. Particulars: PDB protein-ligand complexes, literature Ki; protein: chloramphenicol acetyltransferase iii; PDB entry 1QCA.
Data set [11] deals with Renilla-luciferin 2-monooxygenase. Particulars: PDB protein-ligand complexes, literature Ki; protein: Renilla-luciferin 2-monooxygenase; PDB entry 2PSJ.
The next data set addresses Sucrose isomerase. Particulars: PDB protein-ligand complexes, literature Ki; protein: Sucrose isomerase; PDB entry 2PWG.
Data set [12] deals with Tricomonas vaginalis purine nucleoside phosphorylase(TvPNP). Particulars: PDB protein-ligand complexes, literature Ki; protein: Tricomonas vaginalis purine nucleoside phosphorylase(TvPNP); PDB entry 2I4T.
Data set [13] addresses l-arginine glycine amidinotransferase. Particulars: PDB protein-ligand complexes, literature Ki; protein: l-arginine glycine amidinotransferase; PDB entry 3JDW.
The next data set has as its target arginase 1. Particulars: PDB protein-ligand complexes, literature Ki; protein: arginase 1; PDB entry 1HQG.
For data set [14], the target named is hypoxia-inducible factor 1 alpha inhibitor. Particulars: PDB protein-ligand complexes, literature Ki; protein: hypoxia-inducible factor 1 alpha inhibitor; PDB entry 1YCI.
The target in another data set is chymotrypsin alpha. Particulars: PDB protein-ligand complexes, literature Ki; protein: chymotrypsin alpha; PDB entry 6CHA.
The target of data set [15] is Casein kinase II subunit alpha. Particulars: PDB protein-ligand complexes, literature Ki; protein: Casein kinase II subunit alpha; PDB entry 2OXY.

Consider `Oc1ccc([C@@H]2Oc3cccc(O)c3[C@@H]3CCC[C@@H]32)cc1`, for which the inhibition constant (Ki) at Estrogen receptor alpha was 0.00029 µM.

Consider `CC(C)[C@H]1CN[C@H](C(=O)O)[C@H]1CC(=O)O`, for which the inhibition constant (Ki) on glutamate receptor 2 is 0.662 µM.

In the case of `O=S(=O)(Nc1nc2cc(Cl)ccc2o1)c1cc(Cl)ccc1Cl`, in [1], the inhibitory constant (Ki) was 1.1 µM.

As for `NCCCC[C@H](NC(=O)[C@@H](N)CCCCN)C(=O)O`, in data set [2], the Ki is 125 µM.

Turning to `Cn1c(=O)c2c(nc(N3CCNCC3)n2Cc2ccccc2)n(C)c1=O`, the inhibition constant (Ki) on dipeptidyl peptidase 4 is 0.638 µM.

As for `c1ccc2[nH]c(-c3cscn3)nc2c1`, the inhibition constant (Ki) in data set [3] was 0.4 µM.

For the molecule `N[C@@H](Cn1oc(=O)[nH]c1=O)C(=O)O`, the results for the inhibition constant Ki in [4] and in data set [5] were 0.23 µM and 0.4 µM, respectively.

As to `O=c1cc[nH]c(=O)[nH]1`, the Ki on uracil-dna glycosylase is 0.088 µM.

As to `O=C(Cc1cccs1)N[C@H]([Al])c1cccc(C(=O)O)c1`, the inhibition constant (Ki) on beta-lactamase tem was 0.064 µM; at beta-lactamase ctx-m-9a, 0.578 µM; at beta-lactamase, 0.017 µM.

On to `C[C@](O)(CBr)CCOP(=O)(O)OP(=O)(O)O`, for which the Ki in data set [6] was 1.4 µM.

`O=c1ccn([C@@H]2O[C@H](CO)[C@@H](O)[C@H]2O)c(=O)[nH]1`: the Ki on ribonuclease a was 40 µM.

Turning to `N[C@@H](Cc1ccc(O)cc1)C(=O)O`, the Ki on chorismate mutase is 50 µM.

As for `CC(=O)N[C@@H]1[C@@H](O)[C@H](O)[C@@H](CO)O[C@@H]1O`, in data set [7], the Ki was 14400 µM.

For `O=C(O)C(=O)O`, the values for the inhibitory constant (Ki) (in data set [8]; on 1T5A A; in data set [9]) were 17 µM, 24 µM and 280 µM, respectively.

With `CC(=O)O[C@H]1C[C@@]2(C)[C@@H](C[C@@H](O)[C@H]3[C@@]4(C)CC[C@@H](O)[C@@H](C)[C@@H]4CC[C@@]32C)/C1=C(\CCC=C(C)C)C(=O)O`, in data set [10], the inhibition constant (Ki) was 5.4 µM.

In the case of `O=C(Cc1ccc(O)cc1)Nc1ncc(-c2ccc(O)cc2)nc1Cc1ccccc1`, the Ki in data set [11] is 0.02 µM.

Regarding `O[C@H]1[C@H](O)[C@@H](O)CN2CC[C@H](O)[C@H]12`, the Ki at Sucrose isomerase was 15 µM.

Consider `Nc1ncnc2c([C@@H]3N[C@H](CO)[C@@H](O)[C@H]3O)c[nH]c12`, for which the inhibitory constant (Ki) in data set [12] is 0.001 µM.

For the molecule `NCCC[C@H](N)C(=O)O`, the inhibition constant (Ki) was 253 µM in data set [13] and 1000 µM on arginase 1.

In the case of `O=C(O)C(=O)N[C@H](Cc1ccccc1)C(=O)O`, in data set [14], the inhibition constant (Ki) is 83 µM.

On to `[Al][CH2]Cc1ccccc1`, for which, at chymotrypsin alpha, the Ki was 40 µM.

Turning to `Brc1c(Br)c(Br)c2[nH]cnc2c1Br`, in data set [15], the inhibition constant (Ki) was 0.3 µM.
